This test addresses mouse anti-GM1 IgG2b(κ) antibody GB2 (mouse). As to the kind of experiment: high-speed atomic force microscopy; C1q added at 5-10 μg/mL to GB2 hexameric rings formed on a DOPC membrane with 50% GM1; bound-state dwell time from successive images; room temperature.

Chains of the proteins cited; added tags and fusions are not shown. Residues count along the entry.
UniProt P02745, 23-245: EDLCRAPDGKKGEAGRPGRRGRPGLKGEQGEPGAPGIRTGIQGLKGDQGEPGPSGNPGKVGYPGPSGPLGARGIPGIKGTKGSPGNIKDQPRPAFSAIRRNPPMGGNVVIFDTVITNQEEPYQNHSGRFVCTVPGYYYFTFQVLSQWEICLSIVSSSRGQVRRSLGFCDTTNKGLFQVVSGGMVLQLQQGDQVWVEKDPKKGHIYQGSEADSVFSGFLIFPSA
complement component C1q, UniProt P02746, 28-253: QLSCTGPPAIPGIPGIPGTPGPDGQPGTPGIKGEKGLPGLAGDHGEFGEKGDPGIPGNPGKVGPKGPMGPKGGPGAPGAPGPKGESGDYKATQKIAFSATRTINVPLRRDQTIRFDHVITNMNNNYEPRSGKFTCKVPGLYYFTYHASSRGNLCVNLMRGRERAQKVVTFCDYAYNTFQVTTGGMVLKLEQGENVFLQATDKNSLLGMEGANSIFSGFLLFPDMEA
complement component C1q, UniProt P02747, 29-245: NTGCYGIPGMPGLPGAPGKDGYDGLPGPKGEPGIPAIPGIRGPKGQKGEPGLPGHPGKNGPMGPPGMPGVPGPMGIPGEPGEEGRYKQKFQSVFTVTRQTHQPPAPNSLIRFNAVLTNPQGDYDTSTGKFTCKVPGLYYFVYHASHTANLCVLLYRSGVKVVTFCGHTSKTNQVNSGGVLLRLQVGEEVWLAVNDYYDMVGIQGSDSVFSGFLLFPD

“complement component C1q (from UniProt P02745 23-245; P02746 28-253; P02747 29-245) (complex)” displayed a residence time of 0.49 s.

By residence time is commonly meant the mean lifetime of the complex, commonly the reciprocal of the off-rate.

(Values after publication PMC6981440, “On-Membrane Dynamic Interplay between Anti-GM1 IgG Antibodies and Complement Component C1q” (International Journal of Molecular Sciences, 2019).)
